# From publication PMC5862892, “Near-native, site-specific and purification-free protein labeling for quantitative protein interaction analysis by MicroScale Thermophoresis” (Scientific Reports, 2018)
# T1: pUL50 (human cytomegalovirus, UniProt P16791 1-358)
# T1 sequence: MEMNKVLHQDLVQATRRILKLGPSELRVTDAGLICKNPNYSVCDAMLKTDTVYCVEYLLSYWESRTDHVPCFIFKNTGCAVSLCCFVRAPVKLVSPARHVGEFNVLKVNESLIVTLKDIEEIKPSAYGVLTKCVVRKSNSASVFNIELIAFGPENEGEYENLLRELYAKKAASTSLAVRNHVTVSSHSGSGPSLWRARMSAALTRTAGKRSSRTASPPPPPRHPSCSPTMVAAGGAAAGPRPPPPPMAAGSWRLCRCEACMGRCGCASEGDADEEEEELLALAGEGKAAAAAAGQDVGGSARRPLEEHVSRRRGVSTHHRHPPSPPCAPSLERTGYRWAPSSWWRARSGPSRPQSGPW
# B1: His6-tagged protein variant of pUL53 (residues 50 to 292 of human cytomegalovirus ORF-UL53 1-376) (domain or fragment)
# chain: PSPADARPRLTLHDLHDIFREHPELELKYLNMMKMAITGKESICLPFNFHSHRQHTCLDISPYGNEQVSRIACTSCEDNRILPTASDAMVAFINQTSNIMKNRNFYYGFCKSSELLKLSTNQPPIFQIYYLLHAANHDIVPFMHAEDGRLHMHVIFENPDVHIPCDCITQMLTAAREDYSVTLNIVRDHVVISVLCHAVSASSVKIDVTILQRKIDEMDIPNDVSESFERYKELIQELCQSSG
# modifications: RED-tris-NTA (NT647-tris-NTA) bound to the His6 tag
# notes: source: E. coli BL21(DE3)
# Target: T1, pUL50
# Assay: MST
binder,measurement,setting,value
B1,Kd,both partners purified,1200 ± 500 nM
same,Kd,one partner purified,1800 ± 200 nM
